Most compounds without a hit are left out; they make up all but 16% or so of the library.
DT40 TDP1 no CPT – qHTS for Inhibitors of human tyrosyl-DNA phosphodiesterase 1 (TDP1): qHTS in cells in absence of CPT | DT40 Tdp1-/- hTDP1 cells, no CPT, ATP luminescence, 48 h | Potency, µM (series often up to 46.2 µM), for inactives: at the top dose activity change, negative = growth inhibition, hits mostly inhibitors | 420,000 compounds, 15% hits | AID 686978, 2013; note: potency is the fitted concentration of half-maximal effect; % is set by controls: 0 for no effect and ±100 for the full control effect; nearly all actives have a fitted effect of over 55% in size
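Luminescent ATP content (CellTiter-Glo) served as the growth readout. Knockout chicken DT40 cells expressing human TDP1 were exposed to compounds without camptothecin for a minimum 48 hr at 37 °C.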
TDP1 block – blocks human tyrosyl-DNA phosphodiesterase 1; recombinant TDP1, AlphaScreen DNA substrate cleavage; 350,000 compounds, 0.28% hits; Q9NUW8; AID 485290; Potency, µM (series often up to 130 µM), for the others: top-dose activity change, negative = inhibition, usual class: inhibitors; note: potency is the fitted concentration of half-maximal effect; % is set by controls: 0 for no effect and ±100 for the full control effect; nearly all actives have a fitted effect of over 40% in size
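Tdp1 1 nM final; 15 min RT w/ cpd; substrate 15 nM, 5 min; beads 10 ug/ml, 10 min; AlphaScreen read. Neg ctrl: no enzyme.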
TDP1 cell CPT – growth inhibition of DT40 Tdp1-/-;hTDP1 cells with camptothecin (screen for TDP1 inhibitors); chicken DT40 Tdp1-/-;hTDP1 cells + 20 nM CPT, ATP luminescence, 48 h; Potency, µM (top dose mostly 46.2 µM), for the others: at the highest dose activity change, negative = growth inhibition, actives largely listed as inhibitors; 420,000 compounds, 12% hits; AID 686979; note: potency is the fitted concentration of half-maximal effect; % is set by controls: 0 for no effect and ±100 for the full control effect; nearly all actives have a fitted effect of over 55% in size
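Cell growth measured by CellTiter-Glo luminescence after a minimum 48 h, 37 C compound exposure with 20 nM CPT in Tdp1-knockout DT40 cells stably expressing hTDP1, seeded 400/well; qHTS titration format.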
miR-21 reporter – miR-21 reporter, rising signal. HeLa miR-21 FLuc reporter, luciferase, 48 h. Potency, µM (titrated, usually from 38.3 µM), without a hit: at the top dose reporter change, positive = more light. 340,000 tested, under 10 active. AID 2288; active = well fitted rising curve with a large enough effect; inconclusive = small, poorly fitted or top-dose-only effect; inactive = no such curve, though single readings can be large or run the other way;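 also: % of control where 0% means no effect; miR-21 action dims this reporter so a rising signal means less miR-21 action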
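HeLa miR-21-FLuc reporter line, endogenous miR-21; 2000 cells/well in DMEM/10% FBS; compound titration up to ~40uM final, 48 h, 37 degree Celsius; luciferase detection reagent, 15 min lysis, CCD luminescence.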
uPA generation – cell surface uPA generation inhibition. cell surface uPA generation assay, qHTS. Potency, µM (top dose mostly 38.3 µM), for the others: top-dose activity change, negative = inhibition, usual class: inhibitors. 330,000 compounds, 0.31% hits. AID 540303; active = well fitted inhibition curve with a large enough effect; inconclusive = small, poorly fitted or top-dose-only effect; inactive = no such curve, though single readings can be large or run the other way; tested in mouse RAW 264.7 cells; note: potency is the fitted concentration of half-maximal effect; % is set by controls: 0 for no effect and ±100 for the full control effect; nearly all actives have a fitted effect of over 55% in size
* marks the source's active call; other numbers are inactive results; ? = inconclusive; / = no result; [ ] = dose if it differs, or a comment. Unless noted, calls come from the whole dose curve; as a rule, active = well fitted curve in the direction sought with a large enough effect; inconclusive = small, poorly fitted or top-dose-only effect, or another doubt; inactive = no such curve, though single readings can be large; an effect the other way counts as inactive or inconclusive.

Keys: A = DT40 TDP1 no CPT; B = TDP1 block; C = TDP1 cell CPT; D = miR-21 reporter; E = uPA generation
COC(=O)c1cc(Cl)cc2c(C)c(C3(O)CCCCC3)[nH]c12
  A: 21µM*	B: /	C: ?	D: 7%	E: -8%

COc1ccc(NCc2cc3cc4c(cc3n(CC(=O)Nc3ccc(F)cc3)c2=O)OCCO4)cc1
  A: /	B: 0%	C: /	D: -4%	E: /

CCOC(=O)c1cc(-c2ccc(OC)cc2)n(CCC(=O)Nc2ccc(OC)cc2OC)c1C
  A: 21µM*	B: 8%	C: 21µM*	D: 19%	E: /

CCOC(=O)c1cc(-c2ccccc2)n(CCC(=O)N2CCN(c3ccccn3)CC2)c1C
  A: 21µM*	B: 5%	C: 15µM*	D: 7%	E: 3%

CCOC(=O)c1cc(-c2ccc(C)cc2)n(CCC(=O)NC(C)CC)c1C (stereo not given)
  A: ?	B: 5%	C: ?	D: -10%	E: 7%

CCOC(=O)c1cc(-c2ccc(C)cc2)n(CC(=O)Nc2cc(C)ccc2C)c1C
  A: 15µM*	B: 3%	C: 21µM*	D: -3%	E: /

O=C(CCN1C(=O)c2ccccc2C1=O)N1CCN(c2ccccn2)CC1
  A: -12%	B: 6%	C: 0%	D: -2%	E: /

CCOC(=O)c1cc(-c2ccccc2)n(CCC(=O)NCc2ccccc2Cl)c1C
  A: 13µM*	B: -1%	C: ?	D: 2%	E: /

CC(C)Oc1ccc(C2CC(=O)N(c3ccc(N(C)C)cc3)C2=O)cc1 (stereo not given)
  A: -11%	B: 0%	C: -20%	D: -6%	E: -6%

CCOC(CCNC(=O)CCC(=O)Nc1ccc2nc(N3CCN(C)CC3)cc(C)c2c1)OCC
  A: 1%	B: /	C: 9%	D: -3%	E: 4%

COc1ccc(CCc2nnc(N)s2)cc1OC
  A: 13%	B: 4%	C: -4%	D: -13%	E: -14%

COC(=O)C(C)CCCC(C)CCCC(C)CCCC(C)C (stereo not given)
  A: /	B: 1%	C: /	D: /	E: /

CC(=O)c1cc(-c2ccc(F)cc2)n(CCC(=O)Nc2nc3ccc(C)cc3s2)c1C
  A: 16µM*	B: 7%	C: 26µM*	D: 16%	E: /

CCOC(=O)c1cc(-c2ccc(F)cc2)n(CCC(=O)Nc2ccccc2OC)c1C
  A: 21µM*	B: 8%	C: ?	D: 12%	E: /

CCOC(=O)c1cc(-c2ccc(OC)cc2)n(CCC(=O)Nc2nc3ccc(OCC)cc3s2)c1C
  A: 9.2µM*	B: 0%	C: 16µM*	D: 3%	E: /

CCOC(=O)c1cc(-c2ccc(F)cc2)n(CCC(=O)Nc2cc(OC)cc(OC)c2)c1C
  A: 16µM*	B: 3%	C: 15µM*	D: 7%	E: /

CCOC(=O)c1cc(-c2ccc(C)cc2)n(CCC(=O)Nc2nc3c(C)cccc3s2)c1C
  A: ?	B: 5%	C: ?	D: 25%	E: /

CCOC(=O)c1cc(-c2ccc(F)cc2)n(CCC(=O)NCc2ccccc2OC)c1C
  A: ?	B: 7%	C: ?	D: 2%	E: /

CCOC(=O)c1cc(-c2ccc(OC)cc2)n(CCC(=O)Nc2ccccc2OC)c1C
  A: 21µM*	B: 12%	C: 15µM*	D: -2%	E: /

CCOC(=O)c1cc(-c2ccc(OC)cc2)n(CCC(=O)NCc2ccccc2OC)c1C
  A: ?	B: 12%	C: 26µM*	D: 5%	E: /

CCOC(=O)c1cc(-c2ccccc2)n(CC(=O)Nc2ccc(OCC)cc2)c1C
  A: ?	B: 3%	C: ?	D: 14%	E: -1%

CCOC(=O)c1cc(-c2ccccc2)n(CCC(=O)NCCc2ccccc2)c1C
  A: 16µM*	B: 9%	C: 21µM*	D: 11%	E: /

CCOC(=O)c1cc(-c2ccccc2)n(CC(=O)Nc2ccc(OC)cc2OC)c1C
  A: ?	B: 9%	C: 16µM*	D: -7%	E: /

CC(=O)c1cccc(NC(=O)CC(C)n2ccnc2)c1 (stereo not given)
  A: -28%	B: /	C: -6%	D: 6%	E: 1%

CC(C)CN(C(=O)COC(=O)COc1ccc2ccccc2c1)c1c(N)n(Cc2ccccc2)c(=O)[nH]c1=O
  A: ?	B: -1%	C: ?	D: /	E: 2%

CC(=O)C(=Cc1ccc(-c2ccccc2)cc1)C(=O)c1ccccc1
  A: ?	B: /	C: 18µM*	D: /	E: /

N#CC(=Cc1ccc(-c2ccccc2)cc1)C(=O)c1ccccc1
  A: -24%	B: /	C: ?	D: /	E: /

O=C(C(Br)=Cc1ccccc1)c1ccccc1
  A: 1.3µM*	B: /	C: 0.73µM*	D: /	E: ?

CC(=O)C(=Cc1ccccc1)c1ccccc1
  A: -28%	B: /	C: ?	D: /	E: /

O=C(CSc1nnc(CNC(=O)c2c(F)cccc2F)o1)NCc1ccccc1
  A: -6%	B: 2%	C: 7%	D: 0%	E: -6%

Sorted by count of non-hydrogen atoms (ascending): 3 of the compounds above.
Keys: A = DT40 TDP1 no CPT; B = TDP1 block; C = TDP1 cell CPT; D = miR-21 reporter; E = uPA generation
CC(=O)c1cccc(NC(=O)CC(C)n2ccnc2)c1 (stereo not given)
  A: -28%	B: /	C: -6%	D: 6%	E: 1%

O=C(CSc1nnc(CNC(=O)c2c(F)cccc2F)o1)NCc1ccccc1
  A: -6%	B: 2%	C: 7%	D: 0%	E: -6%

CCOC(=O)c1cc(-c2ccc(F)cc2)n(CCC(=O)NCc2ccccc2OC)c1C
  A: ?	B: 7%	C: ?	D: 2%	E: /

Later entries.
Keys: A = DT40 TDP1 no CPT; B = TDP1 block; C = TDP1 cell CPT; D = miR-21 reporter; E = uPA generation
C[C@@H]1O[C@H](O[C@@H]2[C@H](C)O[C@H](O[C@@H]3[C@H](C)O[C@H](O[C@H]4CC[C@]5(C)[C@@H](CC[C@@H]6[C@H]5C[C@@H](O)[C@]5(C)[C@@H](C7=CC(=O)OC7)CC[C@]65O)C4)C[C@@H]3O)C[C@@H]2O)C[C@H](O)[C@@H]1O
  A: /	B: 5%[56.1 µM]	C: /	D: /	E: /

C[C@H]1O[C@@H](O[C@H]2[C@@H](O)C[C@H](O[C@H]3[C@@H](O)C[C@H](O[C@H]4CC[C@@]5(C)[C@H](CC[C@@H]6[C@@H]5C[C@@H](O)[C@]5(C)[C@@H](C7=CC(=O)OC7)CC[C@]65O)C4)O[C@@H]3C)O[C@@H]2C)C[C@H](O)[C@@H]1O
  A: 0.6µM*	B: -9%[56.1 µM]	C: 0.84µM*	D: ?	E: 1%

O=C(OCCN1CCCCC1)c1cccc(F)c1
  A: -8%	B: 4%	C: -1%	D: -2%	E: 2%

CC1(C)C(=O)Nc2ccccc2N1C(=O)COC(=O)c1cccnc1Cl
  A: 2%	B: -12%	C: 2%	D: /	E: -14%

COc1ccc(CCN(C)CC(O)COC(c2ccc(F)cc2)c2ccc(F)cc2)cc1OC (stereo not given)
  A: ?	B: /	C: 16µM*	D: 5%	E: -7%

O=C(NCc1ccc(F)cc1)c1cc(C2CCCN(S(=O)(=O)c3ccccc3)C2)on1 (stereo not given)
  A: 16µM*	B: /	C: ?	D: /	E: /

CCCC(=O)N1CCCC(c2cc(C(=O)NCc3ccc(F)cc3)no2)C1 (stereo not given)
  A: -26%	B: /	C: -3%	D: /	E: /

COc1cc(C(=O)N2CCCC(c3cc(C(=O)NCc4ccc(F)cc4)no3)C2)cc(OC)c1C (stereo not given)
  A: ?	B: /	C: 23µM*	D: /	E: /

O=C(NCc1ccccc1)c1cc(C2CCCN(C(=O)C3CCCCC3)C2)on1 (stereo not given)
  A: ?	B: /	C: 23µM*	D: /	E: /

O=C(NCc1ccc(F)cc1)c1cc(C2CCCN(C(=O)C3CCCCC3)C2)on1 (stereo not given)
  A: ?	B: /	C: 26µM*	D: /	E: /

O=C(NCc1ccccc1)c1cc(C2CCCN(C(=O)C3CC3)C2)on1 (stereo not given)
  A: -10%	B: /	C: 0%	D: /	E: /

Cc1cc(C)c(S(=O)(=O)N2CCCC2=O)c(C)c1N(C)S(C)(=O)=O
  A: 16%	B: /	C: -10%	D: -3%	E: -15%

C=C(C)CNC(=S)Nc1nc2c(cc1C(=O)OCC)CCCC2
  A: -4%	B: 6%	C: -1%	D: -46%	E: -28%

Cc1ccc2c(c1)c1c(n2C)-c2[nH]ncc2CC1
  A: ?	B: 8%	C: ?	D: -43%	E: 1%

From PubChem
